Measurements from patent US5403850A, “Derivatives of P-substituted phenyl ester of pivalic acid” (Ono Pharmaceutical Co., Ltd., priority 1988, dated 1995).

Biological target: T1, elastase from human neutrophil (Homo sapiens, UniProt P08246)
T1 construct: elastase from human neutrophil; from tissue; host or cells: human neutrophil
T1 sequence (P08246 30-247 limits assumed): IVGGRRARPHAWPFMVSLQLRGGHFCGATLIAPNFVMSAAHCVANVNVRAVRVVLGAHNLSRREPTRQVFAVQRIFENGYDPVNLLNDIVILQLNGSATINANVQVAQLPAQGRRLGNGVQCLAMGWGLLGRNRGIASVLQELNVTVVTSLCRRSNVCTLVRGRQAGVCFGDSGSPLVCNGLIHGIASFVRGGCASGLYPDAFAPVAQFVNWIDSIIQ
Assay: Inhibitory effect on elastase (spectrophotometric, Suc-Ala-Pro-Ala-pNA substrate)
Type: biochemical
Details: 1 mM Suc-Ala-Pro-Ala-pNA, tris-hydrochloric acid pH 8.0, 37° C. for 30 minutes, absorbance 405 nm
Description: The reaction mixture consisted of 1 mM Suc-Ala-Pro-Ala-pNA (dissolving in N-methylpyrrolidone to the concentration of 100 mM, and then adding 1/100 amount of the solution to the reaction mixture.), 0.1 M buffer solution of tris-hydrochloric acid (pH 8.0), 0.2 M sodium chloride aqueous solution, the sample solution of various concentrations and enzyme solution in a final volume of 1.0 ml was incubated at 37° C. for 30 minutes.
Inhibition percentage of the test compounds was calculated by the following equation: [formula]

For CC(C)(C)C(=O)Oc1ccc(S(=O)(=O)Nc2ccccc2C(=O)NCC(=O)O)cc1 [2(63), N-[o-(p-pivaloyloxybenzene)sulfonylaminobenzoyl]glycine], the IC50 was 44 nM.
